Reference: patent US5714470A
Values belong to the compound of their own block, whether it stands above or below them.

The chains behind the UniProt entries cited, without tags or fusion partners. Residues count along the entry.
UniProt P08246, 30-247 limits assumed: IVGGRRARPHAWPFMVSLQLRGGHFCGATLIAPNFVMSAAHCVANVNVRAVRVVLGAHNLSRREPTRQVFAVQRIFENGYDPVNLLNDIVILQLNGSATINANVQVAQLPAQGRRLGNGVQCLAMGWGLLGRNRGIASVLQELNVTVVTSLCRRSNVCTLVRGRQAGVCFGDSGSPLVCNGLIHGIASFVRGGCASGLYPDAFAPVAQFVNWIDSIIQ

Columns and labels:
[1] = system: elastase-induced hemmorrhage; assay: Elastase-induced hemmorrhage model in hamster, oral activity; settings: * = significant at P < .05
[2] = target: human neutrophil elastase (Homo sapiens, UniProt P08246); assay: In vitro inhibition of human elastase with chromophoric peptide substrate (Ki)
[3] = system: elastase-induced hemmorrhage; assay: Elastase-induced hemmorrhage model in rats, oral activity; settings: rat
[4] = Table 2, human neutrophil elastase, NMeOSucAlaAlaProVal-pNA as substrate
[5] = dose 50 mg/kg, * = significant at P < .05
[6] = Table 2A, human neutrophil elastase, NMeOSucAlaAlaProVal-pNA as substrate

Ki [2, 4]: 20 nM
Ki ([2]; Table 3): 20 nM
SMILES: CC(C)C(NC(=O)[C@@H]1CCCN1C(=O)[C@@H](NC(=O)c1ccc(C(=O)N2CCOCC2)cc1)C(C)C)C(=O)C(F)(F)C(F)(F)F (stereo partly drawn)
Oral Activity % Inhibition ([1]; dose 10 mg/kg): 25%
Oral Activity % Inhibition ([1]; dose 25 mg/kg): 56%
Oral Activity % Inhibition ([1]; dose 50 mg/kg): 74%

SMILES: CC(C)C(NC(=O)[C@@H]1CCCN1C(=O)[C@@H](NC(=O)N(C)C)C(C)C)C(=O)C(F)(F)C(F)(F)F (stereo partly drawn)
Oral Activity % Inhibition [3, 5]: 70%

Ki [2, 6]: 100 nM
SMILES: CC(C)C(NC(=O)C1Cc2ccccc2CN1C(=O)[C@@H](NC(=O)c1ccc(C(=O)N2CCOCC2)cc1)C(C)C)C(=O)C(F)(F)C(F)(F)F (stereo partly drawn)

Ki [2, 6]: 120 nM
SMILES: CC(C)C(NC(=O)[C@@H]1Cc2ccccc2CN1C(=O)[C@@H](NC(=O)c1ccc(C(=O)N2CCOCC2)cc1)C(C)C)C(=O)C(F)(F)C(F)(F)F (stereo partly drawn)

SMILES: CC(C)C(NC(=O)[C@@H]1CCCN1C(=O)[C@@H](NC(=O)N1CCOCC1)C(C)C)C(=O)C(F)(F)C(F)(F)F (stereo partly drawn)
Oral Activity % Inhibition ([3]; dose 10 mg/kg, * = significant at P < .05): 30%
Oral Activity % Inhibition ([3]; dose 25 mg/kg, * = significant at P < .05): 61%
Oral Activity % Inhibition [3, 5]: 70%
Oral Activity % Inhibition ([3]; dose 100 mg/kg, * = significant at P < .05): 79%

SMILES: CC(C)C(NC(=O)[C@@H]1CCCN1C(=O)[C@@H](NC(=O)c1ccc(C(=O)N2CCN(C(=O)N3CCOCC3)CC2)cc1)C(C)C)C(=O)C(F)(F)C(F)(F)F (stereo partly drawn)
Oral Activity % Inhibition ([1]; dose 25 mg/kg): 31%

SMILES: CC(C)C(NC(=O)[C@@H]1CCCN1C(=O)[C@@H](NC(=O)CN1CCOCC1)C(C)C)C(=O)C(F)(F)C(F)(F)F (stereo partly drawn)
Oral Activity % Inhibition ([3]; dose 10 mg/kg, * = significant at P < .05, tested form: HCl): 39%
Oral Activity % Inhibition ([3]; dose 50 mg/kg, * = significant at P < .05, tested form: HCl): 77%

SMILES: CC(C)C(NC(=O)[C@@H]1CCCN1C(=O)[C@@H](NC(=O)c1ccc(NC(=O)N2CCOCC2)cc1)C(C)C)C(=O)C(F)(F)C(F)(F)F (stereo partly drawn)
Oral Activity % Inhibition ([3]; doses printed 50 and 10 mg/kg but only one value): 26%

SMILES: CC(C)C(NC(=O)[C@@H]1CCCN1C(=O)[C@@H](NC(=O)c1ccco1)C(C)C)C(=O)C(F)(F)C(F)(F)F (stereo partly drawn)
Oral Activity % Inhibition [3, 5]: 44%

SMILES: CC(C)C(NC(=O)[C@@H]1CCCN1C(=O)[C@@H](NC(=O)c1ccc(C(=O)N2CCOCC2)nc1)C(C)C)C(=O)C(F)(F)C(F)(F)F (stereo partly drawn)
Oral Activity % Inhibition ([1]; dose 25 mg/kg): 61%

Ki [2, 6]: 70 nM
SMILES: CC(C)C(NC(=O)[C@@H]1CSCN1C(=O)[C@@H](NC(=O)c1ccc(C(=O)N2CCOCC2)cc1)C(C)C)C(=O)C(F)(F)C(F)(F)F (stereo partly drawn)

Ki [2, 4]: 60 nM
SMILES: CC(C)C(NC(=O)[C@@H]1CCCN1C(=O)[C@@H](NC(=O)C1CCOCC1)C(C)C)C(=O)C(F)(F)C(F)(F)F (stereo partly drawn)
Oral Activity % Inhibition [3, 5]: 71%

SMILES: CC(C)C(NC(=O)[C@@H]1CCCN1C(=O)[C@@H](NC(=O)CC(=O)N1CCOCC1)C(C)C)C(=O)C(F)(F)C(F)(F)F (stereo partly drawn)
Oral Activity % Inhibition ([3]; doses printed 25 and 10 mg/kg but only one value): 41%

Ki ([2]; Table 3): 19 nM
SMILES: CC(C)C(NC(=O)[C@@H]1CCCN1C(=O)[C@@H](NC(=O)c1ccc(C(=O)N(C)CCN2CCOCC2)cc1)C(C)C)C(=O)C(F)(F)C(F)(F)F (stereo partly drawn)
Oral Activity % Inhibition ([1]; dose 25 mg/kg): 17%
